Test results: patent publication US20240247042A1, “GLUCAGON LIKE PEPTIDE COMPOUNDS” (Novartis AG, priority 2021, published 2024)

Tests used:
[1] = in vivo; details: male, cynomolgus monkey, sc, 0.03 mg/kg
[2] = in vivo; details: C57BL/6, mouse, sc

Compound: CCCCCCCCCCCC(CCCCCCCCCCC(=O)O)(C(=O)O)C(=O)NCCOCCOCCC(=O)NCCCC[C@H](NC(=O)[C@H](C)NC(=O)[C@H](C)NC(=O)[C@H](CCC(N)=O)NC(=O)CNC(=O)[C@H](CCC(=O)O)NC(=O)[C@H](CC(C)C)NC(=O)[C@H](Cc1ccc(O)cc1)NC(=O)[C@H](CO)NC(=O)[C@H](CO)NC(=O)[C@@H](NC(=O)[C@H](CC(=O)O)NC(=O)[C@H](CO)NC(=O)[C@@H](NC(=O)[C@H](Cc1ccccc1)NC(=O)[C@@H](NC(=O)CNC(=O)[C@H](CCC(=O)O)NC(=O)C(C)(C)NC(=O)[C@@H](N)Cc1c[nH]cn1)[C@@H](C)O)[C@@H](C)O)C(C)C)C(=O)N[C@@H](CCC(=O)O)C(=O)N[C@@H](Cc1ccccc1)C(=O)N[C@H](C(=O)N[C@@H](C)C(=O)N[C@@H](Cc1c[nH]c2ccccc12)C(=O)N[C@@H](CC(C)C)C(=O)N[C@H](C(=O)N[C@@H](CCCNC(=N)N)C(=O)NCC(=O)N[C@@H](CCCNC(=N)N)C(=O)NCC(=O)O)C(C)C)[C@@H](C)CC (stereo partly drawn) [Compound 5]
- AUC(0-inf) [1]: 6.34 µM·h
- Cmax [1]: 31.4 ± 10.4 nM
- Tmax [1]: 31.2 h
- half-life [1]: 106 h
- Tmax [2]: 24 h
- half-life [2]: 50.4 h
